Reference: US9655906B2, “Tricyclic indazole compound, method of preparation and pharmaceutical composition containing it” (AZIENDE CHIMICHE RIUNITE ANGELINI FRANCESCO A.C.R.A.F S.p.A., priority 2010, dated 2017)

The chains behind the UniProt entries cited, without tags or fusion partners. Residues count along the entry.
UniProt P28335, 33-458: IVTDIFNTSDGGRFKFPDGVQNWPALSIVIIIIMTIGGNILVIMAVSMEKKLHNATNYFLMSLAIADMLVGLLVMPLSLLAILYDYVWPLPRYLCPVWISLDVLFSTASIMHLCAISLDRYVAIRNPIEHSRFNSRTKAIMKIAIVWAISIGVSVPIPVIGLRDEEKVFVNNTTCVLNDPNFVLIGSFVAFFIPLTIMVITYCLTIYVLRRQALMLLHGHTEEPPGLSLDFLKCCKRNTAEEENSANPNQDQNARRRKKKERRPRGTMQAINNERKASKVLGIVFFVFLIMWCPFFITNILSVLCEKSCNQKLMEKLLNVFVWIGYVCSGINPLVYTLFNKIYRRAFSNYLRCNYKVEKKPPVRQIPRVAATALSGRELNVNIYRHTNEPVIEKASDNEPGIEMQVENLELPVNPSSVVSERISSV

Biological target: T1, human 5-HT2C receptor (Homo sapiens, UniProt P28335)
T1 construct: expressed in transfected cells
Assay: Test B: binding to human 5-HT2C serotonin receptor, [3H]-mesulergine displacement
Details: membranes from CHO-K1 cells expressing human 5-HT2C; read-out: Kd of radioligand (saturation studies)
Experimental: 69: 1449-1458. In particular, binding to the human serotonin 5-HT2C receptor was performed using, as starting material, a preparation of membranes from stable recombinant CHO-K1 cell line expressing the human 5-HT2C receptor. […] The non-specific binding was measured in the presence of 1 μM mianserin. The assay was conducted in Tris-HCl 50 mM buffer (pH 7.4 at 37° C.), 0.1% Ascorbic Acid, 10 μM Pargyline, with incubation for 1 hour at 25° C. The test compounds were dissolved in DMSO, then diluted in buffer (final DMSO concentration 0.01%) and plated on 96-well plates The compounds were tested in duplicate in an 8-points concentration response curve (in a Log scale ranging from 10^−12 to 10^−5 M). SB 242084 was used as reference compound. […] Then the filters were washed with buffer solution and oven-dried for 30 minutes at 45° C. The scintillation liquid was added to each well, and at least 16 hours later the radioactivity was measured for 1 minute using a TopCount (Packard). The IC50 values for each compound were calculated using non-linear regression analysis (GraphPad PRISM software) and the inhibition constants Ki were determined using the equation described by Cheng Y. and Prussof W. H. […] Pharmacol. 22: 3099-3108.

CN1C[C@@H](NS(=O)(=O)N(C)C)C[C@@H]2c3cccc4c3c(cn4C)C[C@H]21 [[^3H]-mesulergine, reference compound]
Kd: 1.1 nM
